## Ab-14 light chain CDR variants: yeast mating affinities

The target is the same throughout: PDVDLGDISGINAS, from the HR2 region of SARS-CoV-2 spike.

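The starting antibody came from a phage panning campaign against this peptide. These sequences belong to a second round, designed from the earlier measurements on random variants of the parent. Group labels follow the data file (Ctrl: baseline library sampled from a position-specific scoring matrix, with some repeated check sequences; GP: Gaussian process model; HC: hill climbing; a sequence that several methods proposed may carry one label only). The assay is AlphaSeq: two haploid yeast populations carry antibody and antigen on their surface. The frequency of each diploid, read from paired DNA barcodes, reflects how well the two displayed proteins bind. Each replicate has its own calibration line, from reference interactions of the BCL2 family. The assay was run in six technical replicates.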

The variants keep the heavy chain, the linker and the frameworks of Ab-14 (scFv order VH, the linker GGGGSGGGGSGGGGS, VL).
VH: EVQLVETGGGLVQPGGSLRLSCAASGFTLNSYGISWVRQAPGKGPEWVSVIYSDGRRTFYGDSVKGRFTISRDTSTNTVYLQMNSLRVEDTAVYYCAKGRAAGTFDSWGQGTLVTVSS
VL: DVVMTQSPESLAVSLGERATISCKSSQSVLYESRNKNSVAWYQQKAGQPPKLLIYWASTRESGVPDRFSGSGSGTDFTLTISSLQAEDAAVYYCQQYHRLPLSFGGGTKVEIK

Positions count from residue 1 of the parent VL; E32D puts D in place of E. Scale: log10 of Kd in nM, estimated from mating counts; low values are strong binders. Replicates are averaged; those with no signal do not enter the mean. Where no diploid with the target was found in that replicate, the entry reads "nd": below detection, most likely a poor binder, though not proof of it. The authors' rule: three or more of the six replicates give a measured affinity, fewer mean a poor binder. As a blank, each scFv also met three strains without target: over all light chain designs, 4% of these pairings were detected, typically at 2.64 and seldom below 1.59. The control count says in how many pairings with the empty strains this scFv gave a signal, with their mean in brackets. Values of this round are not directly comparable with the first-round values of the same sequences. Some sequences occur more than once in the pool; their replicates are listed entry by entry, parted by semicolons. The parent sequence was in this pool as ten entries: three were never detected, three once, and four in most replicates, with averages from 0.34 to 2.37.

changes,group,log10 Kd (nM) by replicate,mean log10 Kd (nM),signal with controls
E32D+T59V,Ctrl,1.16 / 1.15 / 0.81 / 0.97 / 3.44 / 0.91,1.41,1/18 (1.63)
N37S+S38A+W56S,Ctrl,nd / 2.24 / 2.85 / 2.72 / 2.27 / 2.88,2.59,1/18 (3.88)
Q27D+W56D,Ctrl+GP_HC,0.18 / 0.33 / 0.10 / -0.30 / -0.11 / -0.02; 0.33 / 0.33 / 0.12 / -0.19 / 0.34 / 0.49,0.13,1/36 (3.15)
S25I+W56A+S62A,Ctrl,0.01 / -0.37 / -0.53 / -0.31 / -0.33 / -0.16,-0.28,0/18
Q27H+E32M+S103G,Ctrl,nd / nd / 1.68 / nd / nd / nd,1.68,2/18 (2.02)
S33M+E61F,Ctrl,nd / 1.26 / 2.10 / 2.15 / nd / 1.82,1.83,0/18
V29L+S38A+W56Y+S58K,Ctrl,0.62 / 0.67 / 0.85 / 0.75 / 0.71 / 1.20,0.80,0/18
N35G+W56D,Ctrl,0.41 / 0.19 / 0.29 / 0.10 / 0.29 / 0.31,0.26,0/18
S25H+Q27K+L30W+L102I,Ctrl,-0.08 / 0.92 / -0.22 / 0.35 / 0.59 / 0.18,0.29,1/18 (3.80)
W56A+T59M+S62H+H98W,Ctrl,1.08 / 0.85 / 1.12 / 0.70 / 0.66 / 0.94,0.89,2/18 (2.49)
S25F+Y31Q+K36Q+W56N,Ctrl,-0.39 / -0.52 / -0.48 / -0.61 / -0.59 / -0.37,-0.49,1/18 (3.22)
S26T+S28P+V29S+R34T+W56A,Ctrl,0.13 / 0.23 / 0.07 / -0.09 / 0.05 / 0.26,0.11,1/18 (3.15)
Q27H+R34Q+S62N+Y97T,Ctrl,nd / 3.05 / 2.09 / 2.72 / nd / nd,2.62,1/18 (1.79)
K24M+S25C+S26D+S28D,Ctrl,nd / nd / nd / nd / nd / nd,nd,0/18
S26Q+Q27A+Y31D+P101W,Ctrl,nd / nd / nd / nd / nd / nd,nd,0/18
Y31H+Q96S,Ctrl,1.95 / nd / nd / nd / nd / nd,1.95,0/18
L30P+Y31E+K36E,Ctrl,nd / 2.45 / 1.03 / 1.22 / nd / nd,1.57,0/18
K24L+S25L+K36A+N37K,Ctrl,1.08 / 1.60 / 1.52 / nd / nd / 1.63,1.45,0/18
Q27H+V29L+L102E,Ctrl,nd / nd / nd / nd / nd / nd,nd,0/18
R34E+W56A,Ctrl,0.75 / 0.42 / 0.52 / 0.08 / 0.38 / 0.13,0.38,1/18 (0.95)
S25M+R34H+W56S,Ctrl,0.27 / 0.38 / -0.24 / -0.34 / -0.05 / 0.23,0.04,0/18
Q27L+L30E+Y31E+S58M+S103E,Ctrl,1.68 / nd / nd / nd / 2.33 / nd,2.01,0/18
S62D+Y97A,Ctrl,nd / nd / nd / nd / nd / nd,nd,0/18
K36L+N37Q+W56N,Ctrl,0.61 / 0.50 / 0.58 / 0.42 / 0.51 / 0.80,0.57,2/18 (2.67)
K24Q+L30G+R99E,Ctrl,2.27 / 1.84 / 2.62 / nd / 1.90 / 2.55,2.24,0/18
L30V+E32D+W56Q+Y97D+L102I,Ctrl,1.23 / 0.34 / 0.99 / 0.87 / 0.76 / 1.04,0.88,2/18 (2.30)
V29W+S33K+W56G+H98P,Ctrl,nd / 2.45 / nd / 2.63 / nd / nd,2.54,3/18 (2.81)
Y31D+N37D,Ctrl,1.35 / 1.15 / 1.04 / 1.46 / 1.24 / 1.57,1.30,1/18 (2.53)
S38A+W56E,Ctrl,1.18 / 0.39 / 0.45 / 0.51 / 0.66 / 0.75,0.66,1/18 (2.50)
S28P+S33A,Ctrl,nd / 1.43 / nd / 1.89 / nd / 1.27,1.53,0/18
V29F+R34M+H98V,Ctrl,nd / nd / 2.38 / 2.95 / nd / nd,2.67,1/18 (3.35)
L100Q,Ctrl,nd / nd / nd / nd / nd / nd,nd,0/18

The measurements come from Li et al. 2023 (doi:10.1038/s41467-023-39022-2) through the FLAb antibody collection.